A short description of the series: Water solubility.

Where only a bound is given, the exact number is not on record here.

Consider “N-[2-PEG400-0-carbonyl-oxy-ethyl]-octadecanamide [Example 6]”, for which the Water solubility was > 10000 µg/mL.

Source of the values: patent US9522192B2 (EPITECH GROUP S.r.l., priority 2012, dated 2016).
